# Only a part is listed here, and it is no random draw. Calls of active or inactive are those of the source.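 Rule for the calls: active = compounds whose plate-normalised and pattern-corrected inhibition of the luciferase reporter signal at the single screening dose is 50% or more; inactive = the rest.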
# Test: TROY pathway blockers in reporter cells – Q293 LMP1-TROYcd cells, NF-kB luciferase, uHTS, primary screen (AID 1347056)
# Conditions: 4 h, at 10 µM, stronger effect = higher value
row,Structure (SMILES),inhibition
1,Nc1ccc(CCCCOc2ccccc2)cc1,inactive: -48.8%
2,O=P(Nc1nc2ccccc2s1)(c1ccccc1)c1ccccc1,inactive: -17.5%
3,C[C@H]1OP(=O)(Oc2ccccc2)[C@H](O)[C@H](O)[C@H]1N=[N+]=[N-] (stereo not given in full),inactive: 3.22%
4,CC(C)C(=O)NC(Sc1ccccc1)C(Cl)(Cl)Cl (stereo not given),inactive: 3.94%
5,O=P(Nc1nccs1)(c1ccccc1)c1ccccc1,inactive: -6.39%
6,c1nnnn1CCn1cnnn1,inactive: -32.3%
7,CCN(/C(=N/P(=O)(N1CCOCC1)N1CCOCC1)N1CCOCC1)c1ccc(OC)cc1,inactive: 11.6%
8,Nc1ccc([As](=O)(O)c2ccc(N)cc2)cc1,inactive: -6.5%
9,C[N+]1=C2C=CC=CC=C2SC12C([N+](=O)[O-])=CC([N+](=O)[O-])=C[C-]2[N+](=O)[O-] (stereo not given),inactive: -11.4%
10,CC1CCN(C(=O)Oc2c(Cl)cc(Cl)c3cccnc23)CC1,inactive: -36%
11,c1cc(-c2nn[nH]n2)ccc1-c1nn[nH]n1,inactive: -15.6%
12,CC(C)c1nc(Nc2ccccc2)n(P(=O)(N(C)C)N(C)C)n1,inactive: 5.27%
13,CC(C)=N/N=C(\N)N[N+](=O)[O-],inactive: -10.9%
14,CN(C)C(=O)OCCc1n(C)cc[n+]1C,inactive: 3.2%
15,COc1ccc(C2=NCC(CBr)S2)cc1 (stereo not given),inactive: 19.8%
16,Cc1ccc(NP(=O)(Oc2ccccc2)Oc2ccccc2)nc1,inactive: 12.5%
17,CCc1nc2c(n1)c1c(non1O)c1c2no[n+]1[O-],inactive: 7.25%
18,O=[N+]([O-])c1cc([N+](=O)[O-])c(CCNc2ccccc2)c([N+](=O)[O-])c1,inactive: 13.2%
19,O=[N+]([O-])c1cccc2n[nH]nc12,inactive: 9.18%
20,CC(=O)N1C2C3N(C(C)=O)C1C1N(C(C)=O)C(C(N1C(C)=O)N3C(C)=O)N2C(C)=O,inactive: 4.61%
21,O=[N+]([O-])c1ncn(CCn2ncnc2[N+](=O)[O-])n1,inactive: 0.4%
22,CC(C)(C)C(=O)NC(Sc1ccncn1)C(Cl)(Cl)Cl (stereo not given),inactive: -6.11%
23,O=C(O)CNc1ccc([As](=O)(O)O)cc1,inactive: 2.99%
24,COC(=O)C1(C)COP(=O)(Nc2ccccc2)OC1 (stereo not given),inactive: 0.54%
25,O=[N+]([O-])c1cccc(NC2=NCC(CBr)S2)c1 (stereo not given),inactive: -1.74%

row,Structure (SMILES),inhibition
1,O=P1(N(CCCl)CCCl)OCCCS1 (stereo not given),inactive: 9.82%
2,O=C(Nc1cc([As](=O)(O)O)ccc1O)c1ccccc1,inactive: 13.6%
3,Nc1cccc2ccc([As](=O)(O)O)cc12,inactive: 0.04%
4,CCN(N=Nc1nonc1N)c1nonc1N,inactive: -6.81%
5,O=P(Nc1nc2ccc(Cl)cc2s1)(c1ccccc1)c1ccccc1,inactive: -10.1%
6,CN(C)P(=O)(N(C)C)n1c(Nc2ccccc2)nnc1-c1ccccc1,inactive: -34.4%
7,CC(=O)Nc1ccc([As](=O)(O)O)cc1,inactive: -11.8%
8,O=C(O)c1ccccc1[As](=O)(O)O,inactive: -21.3%
9,CCCC1OP(N)(=O)OCC1CC (stereo not given),inactive: 11%
10,Cc1cc(SC(NC(=O)c2ccc(F)cc2)C(Cl)(Cl)Cl)ncn1 (stereo not given),inactive: -0.98%
11,CCOP(=O)(Nc1ccccc1)OCC,inactive: 14.2%
12,Cc1ccc(NP(=O)(Oc2ccccc2F)Oc2ccccc2F)nc1,inactive: -5.27%
13,CN(C(=O)Cc1ccc(Cl)c(Cl)c1)[C@H]1CCCC[C@@H]1N1CCCC1,inactive: 4.57%
14,Oc1ccccc1CNc1ccccn1,inactive: -26.6%
15,O=C(NC(Sc1ccncn1)C(Cl)(Cl)Cl)c1ccccc1 (stereo not given),inactive: 10.4%
16,Nc1cc(N)c2nonc2c1[N+](=O)[O-],inactive: 13.9%
17,CC(C)CC(=O)NC(Sc1ccc(Cl)cc1)C(Cl)(Cl)Cl (stereo not given),inactive: -7.12%
18,O=[N+]([O-])C1C(O)C(O)C([N+](=O)[O-])C(O)C1O (stereo not given),inactive: 8.71%
19,CN(C(=O)Cc1ccc(Cl)c(Cl)c1)[C@H]1CCCC[C@H]1N1CCCC1,inactive: 8.67%
20,Cc1ccc(N/C(=N/P(=O)(N2CCOCC2)N2CCOCC2)N2CCOCC2)cc1,inactive: -4.18%
21,NC(=O)c1cc([N+](=O)[O-])cc([N+](=O)[O-])c1N,inactive: -25.5%
22,CN1CCCC(OC(=O)C(c2ccccc2)c2ccccc2)C1 (stereo not given),inactive: 3.55%
23,Clc1ccc(Cl)c(NC2=NCC(CBr)S2)c1 (stereo not given),inactive: 10.7%
24,COc1ccccc1OP(=O)(Nc1ccc(C)cn1)Oc1ccccc1OC,inactive: -7.67%
25,Cc1ccc(OP(=O)(Nc2nccs2)Oc2ccc(C)cc2)cc1,inactive: 2%

# From PubChem BioAssay AID1347056 (Sanford-Burnham Center for Chemical Genomics, 2019)
